Experimental data as given in US20120035183A1, “Cancer Treatment Method” (priority 2008, published 2012).

Test system: LL1-BT-474-J4 (J4) breast cell clone
Test: CellTiter-Glo cell growth inhibition assay, LL1-BT-474-J4
Type: cell-based
From the text: Combination Index values>1.10 indicated antagonism.

**Q.** trastuzumab: Herceptin® (trastuzumab) was tested. Which “sensitivity of the cell line to the agent (in words)” value did it give?
**A.** Its value is “resistant”.
